Measured values from US20110144018A1, “AGENT FOR PROPHYLAXIS OF REFLEX SYMPATHETIC DYSTROPHY AFTER CEREBRAL APOPLEXY” (priority 2006, published 2011).

Columns and labels:
[1] = tested on: rats; test: Lethal toxicity in rats; type: in vivo; conditions: 13500 or 7400 units/kg (body weight) to mice or rats; intravenous, intramuscular, hypodermic and oral routes
From the text: (§1) These calcitonins or calcitonin derivatives are exceedingly low toxic.

[2] = tested on: mice; test: Lethal toxicity in mice; type: in vivo; conditions: 13500 or 7400 units/kg (body weight) to mice or rats; intravenous, intramuscular, hypodermic and oral routes
From the text: as §1

1-butyric acid-7-(L-2-aminobutyric acid)-26-L-aspartic acid-27-L-valine-29-L-alanine-calcitonin [EL]
Lethal toxicity [1]: no lethal toxicity
Lethal toxicity [2]: no lethal toxicity
